US11401376B2, “Chemical compounds for coating of nanostructures” (Spago Nanomedical AB, priority 2017, dated 2022)

Tests used:
[1] = Solubility of the coated nanostructure product (Example 14)
[2] = Heat treatment, loss of coating (Example 17); assay type: physicochemical; conditions: coated nanostructures, 80° C. for 30 minutes, washed on 10 kDa filter, Si/P ratio by ICP-OES
Description: The sample was moved to a 20 mL flask and degassed by three N2-vacuum cycles and was then kept under N2. The sample was heated in a silicon oil bath at 80° C. for 30 minutes and was then cooled to ambient room temperature. A reference aliquot was withdrawn (A). The remaining sample was washed with four times with milliQ water on a 10 kDa Vivaspin 6 centrifugation filter (Sartorious). A reference aliquot (B) was withdrawn from the retentate. Reference aliquots A, and B were analyzed with ICP-OES.

[3] = Calcium induced aggregation of the coated nanostructures (Example 15); assay type: physicochemical; conditions: for Ca resistance: coated nanostructures, 0-8 mM CaCl2, 10 mM Tris-HCl 150 mM NaCl pH 7.4, 1 h room temperature
Description: Volumes of nanostructure were added to 1 ml aliquots of 10 mM Tris-HCl 150 mM NaCl pH 7.4 containing 0, 0.5, 1, 2, 4 and 8 mM CaCl2) in microcentrifuge tubes so that the final concentration of phosphorus was 0.5 mM. The samples were vortexed, incubated at room temperature for 1 h and centrifuged for 10 min at 12000×g. The supernatants (700 μl) were removed and analyzed by ICP for phosphorus concentrations. The phosphorus concentrations were normalized to the concentration in corresponding samples without CaCl2) and plotted as ‘% remaining in solution’ against the concentration of CaCl2) in the reaction mixture. When 90% or more remains in solution the material is considered robust against calcium induced aggregation.

[4] = Stability of coated nanostructures on manganese loading / process conditions (GFC, Example 18); assay type: physicochemical
Description: 200 ml of the crude solution of coated nanostructures of Example 13b was added a solution of 0.256 g MnCl2.4H2O dissolved in 2.56 ml ethylene glycol. The pH was adjusted to 4.07 with 1 M NaOH. The manganese solution was added to the reaction. An aliquot A was taken out. The reaction was heated at 100° C. for 25 h 30 min after which the temperature descended to ambient room temperature. An aliquot B was withdrawn.

[5] = statement in text referring to example 14

| Substance | Loss of coating [2] | Ca resistance [3] | also measured |
| --- | --- | --- | --- |
| 1,3-bis[ω-methyl-(ethyleneoxy)12-20methyl]-4,6-bis[(prop-3-triethoxysilyl-1-yl)oxy]benzene [Compound 20] |  |  | solubility of the coated nanostructures [1, 5]: form gels |
| 5,5′-bis[ω-methyl-(ethyleneoxy)12-20 methyl]-3,3′-bis[(prop-3-triethoxysilyl-1-yl)oxy]-1,1′-biphenyl [Compound 14] | 0% | Y (When 90% or more remains in solution the material is considered robust against calcium induced aggregation) |  |
| 1-[ω-methyl-(ethyleneoxy)12-20 methyl]-3,5-bis(eth-2-triethoxysilyl-1-yl)benzene [Compound 33] | 0% |  |  |
| 1-[ω-methyl-(ethyleneoxy)12-20 methyl]-3,5-bis[(but-4-triethoxysilyl-1-yl)oxy]benzene [Compound 26] | 0% |  |  |
| 4-[ω-methyl-(ethyleneoxy)12-20]hepta-1,6-diene [Compound 43] |  | Y (When 90% or more remains in solution the material is considered robust against calcium induced aggregation) |  |
| 1-[ω-methyl-(ethyleneoxy)12-20 methyl]-3,5-bis(prop-3-triethoxysilyl-1-yl)benzene [Compound 38] | 1% |  | Soluble product ([1]; nanostructures coated with the coating precursor, ethyleneglycol/water, heated 20 h): partial |
| 1-[ω-methyl-(ethyleneoxy)12-20 methyl]-3,5-bis[(prop-3-triethoxysilyl-1-yl)oxy]benzene [Compound 6] | 0% | Y (When 90% or more remains in solution the material is considered robust against calcium induced aggregation) | stability of coated nanostructures under the coating / process conditions [4]: robust; also recorded: good result; calcium ion induced aggregation [3, 5]: prevent calcium ion induced aggregation |

Entries after “also recorded” stand apart in the source; their conditions may differ.
